{"source": "patent US4291024A", "about": "“Cytotoxic liponucleotide analogs” (priority 1980, dated 1981)", "key": {"[1]": {"test_system": "human colon carcinoma HCT-15 cells", "assay": "Antitumor activity against human colon carcinoma in immunosuppressed mice", "format": "in vivo, mouse", "details": "for PER CENT CHANGE IN BODY WEIGHT: control +18", "experimental": "Male B6D2F1 mice (18-22 g, 4/group) were immunosuppressed with 0.25 ml subcutaneous injection of ATS on days -1,0,1,3 and 6. Human colon carcinoma cells (5.0×10^6 cells/mouse) were inoculated subcutaneously into an area slightly above the left inguinal region on day 0. The drug dissolved in saline to a volume of 0.1 ml was injected intraperitoneally once a day for four consecutive days. Saline was administered to the controls. The percent change in body weight from the onset to the day of weighing the tumor was used as an indication of drug toxicity."}, "[2]": {"assay": "LD10 (lethality)", "format": "in vivo", "details": "×4 regimen"}, "[3]": {"test_system": "leukemia L5178Y ascites cells", "assay": "Survival time of mice bearing leukemia L5178Y ascites cells, Ia-11-diglyceride", "format": "in vivo, mouse", "details": "control +0.66", "experimental": "Mice (10/group) were inoculated with L5178Y cells (5×10^6 cells/mouse) and drug injections were begun on the second day. The drug in a volume of 0.1 ml was injected intraperitioneally once a day for four consecutive days. Saline was administered to the controls. The percent change in body weight from the onset to the termination of therapy was used as an indication of drug toxicity."}}}
{"substance": "1-Beta-D-Arabinofuranosylcytosine-5'-diphosphate-L-diglyceride Diammonium Salt [Ia-11-Diglyceride]", "values": [{"measurement": "PER CENT CHANGE IN BODY WEIGHT", "setting": "[1]; 25 mg/kg daily i.p. ×4 days", "result": -11, "unit": "PER CENT"}, {"measurement": "PER CENT CHANGE IN BODY WEIGHT", "setting": "[1]; 50 mg/kg daily i.p. ×4 days", "result": -20, "unit": "PER CENT"}, {"measurement": "toxicity", "setting": "[1]; immunosuppressed mice with human colon carcinoma (Table 6)", "result": "toxicity (Table 6) was observed"}, {"measurement": "LD10", "setting": "[2]", "result": 85, "unit": "mg/kg/day×4"}, {"measurement": "% CHANGE IN WEIGHT", "setting": "[3]; 12.5 mg/kg daily i.p. ×4 days", "result": "+2.02%"}, {"measurement": "% CHANGE IN WEIGHT", "setting": "[3]; 25.0 mg/kg daily i.p. ×4 days", "result": "+1.56%"}, {"measurement": "% CHANGE IN WEIGHT", "setting": "[3]; 50.0 mg/kg daily i.p. ×4 days", "result": -0.30, "unit": "%"}]}
